Apparent affinities of Ab-14 variants for a coronavirus HR2 peptide

Values reported by Li et al. 2023, doi:10.1038/s41467-023-39022-2 (FLAb copy).

Binding partner: SARS-CoV-2 spike HR2 peptide, sequence PDVDLGDISGINAS.

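The parent was found by panning a naive human phage display library on the peptide. The variants were designed computationally from a first round of random CDR variants and then made and measured. Several design methods are mixed in this list. AlphaSeq pools MATa yeast showing the antibodies with MATalpha yeast showing the peptide. After mating in shaken culture at 30 °C for 16 h, diploids were selected and their barcode pairs sequenced. A regression on co-assayed BCL2-family reference pairs converts the normalised counts of each replicate to an apparent Kd. Each pool was mated in six replicate cultures.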

Parent: Ab-14, a human scFv built as VH, a 15-residue (Gly4Ser)3 linker, VL. Only the CDRs of the heavy chain vary.
VH: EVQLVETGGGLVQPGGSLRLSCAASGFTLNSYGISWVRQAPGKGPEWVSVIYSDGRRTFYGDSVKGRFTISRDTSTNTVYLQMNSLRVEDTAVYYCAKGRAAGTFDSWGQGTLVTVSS
VL: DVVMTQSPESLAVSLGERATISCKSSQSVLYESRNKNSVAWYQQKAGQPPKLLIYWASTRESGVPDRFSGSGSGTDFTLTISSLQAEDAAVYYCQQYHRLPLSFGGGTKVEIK

Variants are written as CDR1, CDR2 and CDR3 of the heavy chain (limits as in the source). Parent: GFTLNSYGIS, VIYSDGRRTFYGDSVK, GRAAGTFDS. Variants here have more than six changes. Values are apparent Kd, the geometric mean of the replicates that gave a signal; lower means stronger binding. "nd" marks a missing value. The strain was present, yet no cells mated with the target were sequenced in any replicate, which points to weak or no binding. Values of this round are not directly comparable with the first-round values of the same sequences. Of ten entries with the parent sequence, four were seen in most replicates (averages 2.2 nM to 240 nM), three in one and three in none, so single entries are noisy. The authors averaged sequences with at least three values out of six and counted those with two or fewer as poor binders. Nonspecific signal, from three strains lacking the peptide, appeared in 1% of pairings of all heavy chain designs, centred on 120 nM (5% of these signals below 7.0 nM); values are not corrected for it.

Variant GFDLDEYGIS / VIYADGRRTAYADSVK / GSNAGTFDL gave 470 pM (6 of 6 replicates).
Variant GFSLDEYGIS / VIYADGRRTFYQDDVK / GNVAGTFDA gave 250 pM (6 of 6 replicates).
Variant GFDLDEYGIS / VIYADGCRVSYANTVK / GLLGKLVVV gave nd (0 of 6 replicates).
Variant GFNLDEYGIS / VIYADGMRTFVSNAVK / GHNADFRFV gave nd (0 of 6 replicates).
Variant GFDLDEYGIS / VIYADGGRVSYAQNVK / GLVGKGGDV gave nd (0 of 6 replicates).
Variant GFDLNEYGIS / VIYADGMRTAYADSVK / GNVAGTFVL gave 890 pM (6 of 6 replicates).
Variant GFQLDEYGIS / VIYADGRRTFYQDSVK / GEVAGTFDF gave 690 pM (6 of 6 replicates).
Variant GFDLNEYGIS / VIYADGVRTVYADSVK / GENAGTFDM gave nd (0 of 6 replicates).
Variant GFDLNEYGIS / VIYADGRRTFYSDSVK / GAVAGTFDT gave 140 pM (6 of 6 replicates).
Variant GFDLQEYGIS / VIYADGLREAYSDKVK / GQLMGYFSF gave nd (0 of 6 replicates).
Variant GFDLNEYGIS / VIYADGVRTSYADSVK / GNVAGTFDT gave 450 pM (6 of 6 replicates).
Variant GFDLNEYGIS / VIYADGQRTAYADSVK / GNVAGTFDT gave 2.7 nM (6 of 6 replicates).
Variant GTKLSSYGYS / VIYSDGRRTFYGDSVK / GRVRGCFPS gave nd (0 of 6 replicates).
Variant GFDLNEYGIS / VIYADGVRTAYIDSVK / GENAGTFDM gave 1.3 nM (6 of 6 replicates).
Variant GFDLEDYGIS / VIYADGMRTAYADSVK / GNQAGTFDL gave 1.4 nM (6 of 6 replicates).
Variant GFDLQEYGIS / VIYADGLREAYSDKVK / GQLMGYFSV gave nd (0 of 6 replicates).
Variant GFDIQDYGIS / VIYADGLRTAYSDGFK / GIIAGTFNI gave 360 pM (6 of 6 replicates).
Variant GFDLNEYGIS / VIYADGMRTAYADSVK / GQLAGTFDV gave 5.2 nM (6 of 6 replicates).
Variant GFDLDEYGIS / VIYADGRRTFYADSVK / GTNAGTFDA gave 1.4 nM (6 of 6 replicates).
Variant GFDLNEYGIS / VIYADGKRTFYADNVK / GEVAGTFDV gave 300 pM (6 of 6 replicates).
Variant GFDLDEYGIS / VIYADGVRTAYSDSVK / GNVAGTFDM gave 380 pM (6 of 6 replicates).
Variant GFDLNEYGIS / VIYADGVRTAYADSVK / GKAAGTFDS gave 390 pM (6 of 6 replicates).
Variant GFDLLEYGIS / VIYADGQRVAYKNNVK / GKNGATGSN gave nd (0 of 6 replicates).
Variant GFDLDEYGIS / VIYADGSRTAYADSVK / GNVAGTFDT gave 200 pM (6 of 6 replicates).
Variant GQNLDEYGIS / VIYADGQRTAYDDPVK / GEQGGTVMV gave 1.5 µM (1 of 6 replicates).
Variant GFDLNEYGIS / VIYADGRRTAYADSVK / GEHAGTFDI gave 250 nM (6 of 6 replicates).
Variant GFDLDEYGIS / VIYADGKRTAYTDSVK / GENAGTFDL gave 400 pM (6 of 6 replicates).
Variant GFDLDEYGIS / VIYADGSRTAYSDSVK / GENAGTFDI gave 23 nM (6 of 6 replicates).
Variant GFDLNEYGIS / VIYADGRRTFYADNVK / GEVAGTFIV gave 31 nM (3 of 6 replicates).
Variant GFNLDEYGIS / VIYADGRRTAYSDNVK / GEAGGTFDI gave 430 pM (6 of 6 replicates).
Variant GFDLNEYGIS / VIYADGMRTVYADSVK / GNQAGTFDM gave 330 pM (6 of 6 replicates).
Variant GFDLNEYGIS / VIYADGKRTAYADNVK / GGVAGTFDV gave 20 nM (6 of 6 replicates).
Variant GYDIDEYGIS / VIYADGQRTAYQNAVK / GEQDGIMMY gave nd (0 of 6 replicates).
Variant GFDLMEYGIS / VIYADGVRTAYLDQVK / GEEGGALYT gave 160 nM (1 of 6 replicates).
Variant GKSLDEYGIS / VIYADGLRKEYTDSVK / GQFDDAMDL gave nd (0 of 6 replicates).
Variant GFTLNEYGIH / VIYSDGRRTFYKDSVK / GREKDTKDW gave 10 nM (4 of 6 replicates).
Variant GFDLNEYGIS / VIYADGKRTAYQDSVK / GENAGTFDV gave 600 pM (6 of 6 replicates).
Variant GFDLDEYGIS / VIYADGQRTAYADSVK / GNTAGTFDV gave 700 pM (6 of 6 replicates).
Variant GFDLNEYGIS / VIYADGKRTAYSDSVK / GENAGTFDT gave 320 pM (6 of 6 replicates).
Variant GFDLDEYGIS / VIYADGRRTAYADDVK / GNQAGTFDV gave 1.1 nM (6 of 6 replicates).
Variant GFDLDEYGIS / VIYADGMRTAYVDSVK / GQNAGTFDV gave 540 pM (6 of 6 replicates).
Variant GFDLEDYGIS / VIYADGMRTAYADSVK / GQVAGTFDV gave 120 pM (6 of 6 replicates).
Variant GFDLNEYGIS / VIYADGRRTFYSDSVK / GEVAGTFDT gave 910 pM (6 of 6 replicates).
Variant GFDLDEYGIS / VIYADGQRTFYADSVK / GNVAGTFDT gave 350 pM (6 of 6 replicates).
Variant GFDLDEYGIS / VIYADGKRTAYADSVK / GGNAGTFDM gave 1.7 nM (6 of 6 replicates).
Variant GFDIEEMGIS / VIYADGQRLFYADEVK / GENAGSFDM gave 110 nM (1 of 6 replicates).
Variant GFDLDEYGIS / VIYADGVRTAYADSVK / GEVAGTFDI gave 260 pM (6 of 6 replicates).
Variant GFSLNEYGIS / VIYADGRRTFYADSVK / GNQAGTFDQ gave 330 pM (6 of 6 replicates).
Variant GFDLNEYGIS / VIYADGMRTVYTDSVK / GENAGTFDI gave 320 pM (6 of 6 replicates).